Test results reported in ChEMBL document CHEMBL3758107, “Lead optimization of the VU0486321 series of mGlu(1) PAMs. Part 2: SAR of alternative 3-methyl heterocycles and progress towards an in vivo tool” (Bioorg Med Chem Lett, 2016).

Experiment: Ratio of drug level in brain to plasma in rat brain at 0.25 mg/kg, iv after 0.25 hrs by PBL cassette study
Assay type: ADME, organism-based

Q: For Cc1ccoc1C(=O)Nc1ccc(N2C(=O)c3cccc(C)c3C2=O)cc1F, which Ratio is on record?
A: Its Ratio is 0.95.
